For this assay, the system named is T. cruzi. Description: T. cruzi inhibition reported in literature. In kind it is cell-based. Conditions: IC50^Tc vs IC50^CZP.

For the compound `CCCCC(C(=O)COc1c(F)c(F)cc(F)c1F)n1cc([C@@](C)(NCc2ccc3ncccc3c2)C(C)C)nn1` (stereo partly shown) [Ts-370], the “fold lower antitrypanosomal potency than CZP inhibitory potency” value was 14 fold.

The values are drawn from PMC11396839, “Structure-Aided Computational Design of Triazole-Based Targeted Covalent Inhibitors of Cruzipain” (Molecules, 2024).
